# Values of other authors, collected in patent US20140037721A1, “Pharmaceutical Composition” (Alpharma pharmaceuticals LLC, priority 2007, published 2014).
# Test system: opioid receptors
# Conditions: One mg intravenously; cited from earlier work
compound,measurement,value
C=CCN1CC[C@]23c4c5ccc(O)c4O[C@H]2C(=O)CC[C@@]3(O)[C@H]1C5 [naloxone],blockade of the effect of 25 mg of heroin,block completely
